# Experimental data taken from US9526785B2, “Pharmaceuticals for oral delivery” (Enteris BioPharma, Inc., priority 2013, dated 2016).
# Experiments:
# [1] = Tigecycline plasma PK and % F after intraduodenal (ID) injection in anesthetized rats; assay type: in vivo; details: female, Sprague-Dawley, rat, other: intraduodenal injection, 4.8 mg/kg, pH 3.5, ID, 400 mM CA (pH 3.5), 26 mM LLC, 4.8 mg/kg (RA851), parent Tigecycline peak only, relative to 0.64 mg/kg IV
# Experimental: Naïve, female Sprague-Dawley Rats (Taconic Farms, Germantown, N.Y.) housed in groups of three were maintained in a climate-controlled room on a 12:12 h light-dark cycle with food and water available ad libitum. Animals weighed approximately 250 g at the time of testing. Rats were fasted overnight (with water available), prior to dosing. Tigecycline stock was prepared fresh on the day of each study in water and diluted in the indicated formulations.
# Intravenous (IV) doses were administered as a bolus injection into the left carotid […] at a dose volume of 1.6 mL/kg. Intraduodenal doses were administered as bolus injections into the duodenum at a dose volume of 1.2 mL/kg. […]
# Female rats were maintained in groups of 3 per polycarbonate (or equivalent) shoebox cage with fresh wood chip bedding at 20-22° C. under a 12 hour on/off light:dark cycle. […] Animal weights were determined post-anesthesia induction. […]
# An intraduodenal injection was utilized to mimic oral delivery of an enterically coated capsule or tablet formulation. […] The measured site was identified by inserting a small piece of surgical suture underneath the site for injection. […] Blood samples (˜0.5 mL) were collected from a surgically implanted cannula in the right carotid artery for plasma tigecycline concentration analysis prior to dosing and at pre-determined time points post-dose up to either 120 or 240 minutes depending on the study. […]
# [2] = Tigecycline plasma PK and % F after PO enteric-coated capsule in dogs; assay type: in vivo, Beagle dogs; details: PO 15 mg enteric-coated capsule with 500 mg CA and 100 mg LLC (1.25 mg/kg), SC424; individual dogs
# Experimental: Adult beagle dogs weighing approximately 9 to 15 kg were used in the study. […] Room temperature was set to be maintained between approximately 20±5° C. Relative humidity was monitored but not controlled.
# TEKLAD™ Certified Canine Diet was provided once daily in amounts (˜400 grams) appropriate for the size and age of the animals. Tap water was available ad libitum via automatic watering device or water bowls.
# Doses are expressed in terms of free net tigecycline content. Intravenous doses of tigecycline were administered as bolus injections at a dose of 1.0 mg/mL. […]
# The quantitative determination of tigecycline in dog plasma was performed using an HPLC assay using UV detection at 350 nm. […]
# The HPLC system consisted of Shimadzu SIL-HTc HPLC system equipped with dual Shimadzu LC-10ADvp isopumps, a Shimadzu CTO-10ASvp column temperature controller and a Shimadzu SPD-10Avp variable wavelength detector. The chromatographic separation was based on Li et al. with some notable differences (See Li et al., 2004, Quantitation of tigecycline, a novel glycylcycline, by liquid chromatography. J. Chromatography B. 811:225-229). […]
# The unknown concentration in dog plasma samples was determined by interpolation of the peak area ratios of analyte:internal standard versus the ratio of their nominal concentrations into the regression line obtained from calibration standards spiked in pooled dog plasma. […]
structure (smiles),measurement,setting,value
CN(C)c1cc(NC(=O)CNC(C)(C)C)c(O)c2c1C[C@H]1C[C@H]3[C@H](N(C)C)C(O)=C(C(N)=O)C(=O)[C@@]3(O)C(O)=C1C2=O [Tigecycline],bioavailability,[1],20.3%
same,Tmax,[2],1.75 h
